This data set can be described thus: physchem. The note with it: octanol/ph 7.0 buffer, pH 7, Log P. As for the experimental part: Measurement of Octanol-Water Partition Coefficients.
n-Octanol-water partition coefficients (P) were determined by a microscale shake-flask procedure, (Ford, H. et al Abstracts of Papers, 200th National Meeting of the American Chemical Society, Washington, D.C.; American Chemical Society: Washington, D.C., 1990; CARB 13) which was modification of an earlier method (Nahum, A. & Horvath, C. J. Chromatogr. 1980, 192, 315). A 20 μL aliquot of a 0.5 mg/mL DMSO solution of the dideoxynucleoside was dissolved in 1.0 mL of octanol-saturated, pH 7.0, 0.01M potassium phosphate buffer. This was mixed thoroughly with 1.0 ml of buffer-saturated n-octanol in a 2-mL Mixxor apparatus at 24°-26° C. and then allowed to stand for 15 min. The phases were separated, centrifuged at 600×g for 5 min, and the relative concentration of sample in each phase determined by HPLC analysis of a 50 μl aliquot. The partition coefficient was calculated by dividing the absolute area of the appropriate integrated peak from the octanol phase by that of the buffer phase (Table I).
Octanol/pH 7.0 buffer partition coefficients were determined using a newly developed microscale method. […] The addition of a methyl group normally increases the log P value of a compound by about 0.5.

Structures are written as SMILES.

Results on one molecule are retold here after US5459256A, “Lipophilic, aminohydrolase-activated prodrugs” (priority 1991, dated 1995).

In the case of `Nc1ncnc2c1ncn2[C@@H]1O[C@H](CO)C[C@@H]1F` [Compound 1a, 2', 3'-dideoxy-2'-fluoroarabinosyladenine, reference compound], the logD is -0.18 ± 0.01.

What is called logD is the decadic logarithm of the distribution of all forms, ionised or not, between an organic phase and buffer at a given pH. A high value points to higher lipophilicity.
